Data on one substance can be found in patent publication US20250388665A1.

The target in assay [1] is murine TNFα (murine) (UniProt P06804). As to the kind of experiment: ELISA: Fab captured via anti-human Fd, biotinylated murine TNFα titrated (x axis), prolonged dissociation at pH 6.0, A450. (ELISA stands for enzyme-linked immunosorbent assay.)
For assay [2] the target is unchanged. As to the kind of experiment: ELISA: Fab captured via anti-human Fd, biotinylated murine TNFα titrated (x axis), prolonged dissociation at pH 7.4, A450.

As usually defined, the EC50 (read off the curve) is the concentration that produces a half-maximal response. A lower EC50 (read off the curve) goes with a more potent agent. Turning to “4.2a-6 Fab (Fab; other documents disagree on this pair)”, the figures for the concentration for a half-maximal effect (EC50 (read off the curve)) in assay [1] and in assay [2] were 2 nM and 1 nM, respectively.
